The numbers were not newly measured in US20090119801A1, “Method for preserving cut flowers, cut flower preservation kit, method for manufacturing processed cut flowers, and processed cut flowers” (SUNTORY FLOWERS LIMITED, priority 2007, published 2009), which cites them from elsewhere.

For this series the following is noted: logP; cited from earlier work.

On to 2-butanol, for which the partition coefficient is given as 0.691.
